Tests used:
[1] = test system: human lung epithelial cells (BEAS-2B); assay: Basic cellular function of cells exposed to Steen solution and its modifications (IncuCyte Live Cell Analysis); type: cell-based; conditions: different concentrations of Albumin (1, 2, 4, 7%) and Dextran 40 (5, 25, 50 g/L) in Steen solution
Description: (§1) Methods: Human pulmonary microvascular endothelial cells (HPMEC) and human lung epithelial cells (BEAS-2B) were used to determine the effects of Steen solution components on basic cellular function. Cell confluence, apoptosis and migration were visualized and quantified by IncuCyte® Live Cell Analysis System in real-time. A simulated EVLP cell culture model was established by replacing regular culture medium with cold lung preservation solution and followed by “perfusion” with normothermic Steen solution or its modifications. Cell apoptosis was quantified. Porcine lung EVLP was performed using Steen solution with added nutrients.
(§2) Steen solution contains phosphate and bicarbonate buffer, glucose (as an energy source), a high concentration of albumin (7%, to maintain high colloidal osmolarity), and a low dose of Dextran 40 (5 g/L, to improve microcirculation).
(§3) The effects of glutamine in Steen solution on mitochondrial respiration and glycolytic function were examined using a Seahorse XFe analyzer.

[2] = test system: human pulmonary microvascular endothelial cells (HPMEC); assay: as above; type: cell-based; conditions: different concentrations of Albumin (1, 2, 4, 7%) and Dextran 40 (5, 25, 50 g/L) in Steen solution
Description: as §1, §2, §3

With “Albumin: colloid component of Steen solution, tested at 1, 2, 4, 7%” as the substance, how does the “cell confluence, apoptosis and migration” value [1] read?
Its value is “no major differences”.

And the “cell confluence, apoptosis and migration” value [2]?
Its value is “no major differences”.
